Reference: PubChem BioAssay AID1346378 (National Center for Advancing Translational Sciences (NCATS), 2018)
Where “and” joins values, the source holds several entries; their conditions need not be identical. Equal entries are not always repeated. This is a selection; strong and weak results do not stand in their true shares. Calls of active or inactive are those of the source. No stated cut-off is given here; in the data, active means activity change below about -50%; inconclusive means mostly about -30% to -49%; inactive means weaker than that.

Protein sequences, listed by entry. Tags and fused reporters are not part of them. Lines headed by an entry give the natural chain unless they say otherwise; changes in a name come on top.
UniProt Q9BTU6: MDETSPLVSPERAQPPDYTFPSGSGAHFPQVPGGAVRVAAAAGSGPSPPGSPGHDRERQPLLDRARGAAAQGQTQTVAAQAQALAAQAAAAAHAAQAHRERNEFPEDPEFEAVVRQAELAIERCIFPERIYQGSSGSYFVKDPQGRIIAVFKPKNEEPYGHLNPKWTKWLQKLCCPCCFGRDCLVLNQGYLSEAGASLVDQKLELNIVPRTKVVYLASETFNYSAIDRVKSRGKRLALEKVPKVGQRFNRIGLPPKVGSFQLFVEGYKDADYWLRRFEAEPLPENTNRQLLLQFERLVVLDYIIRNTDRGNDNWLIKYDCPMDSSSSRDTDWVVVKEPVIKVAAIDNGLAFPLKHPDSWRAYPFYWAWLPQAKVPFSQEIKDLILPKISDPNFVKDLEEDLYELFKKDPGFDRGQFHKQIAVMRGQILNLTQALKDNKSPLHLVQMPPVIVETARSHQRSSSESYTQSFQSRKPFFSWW

Each molecule was assayed against Phosphatidylinositol 4-kinase type 2-alpha (Homo sapiens) (UniProt Q9BTU6) (assay: qHTS for small molecular inhibitors of PI4K2A). Details: purified PI4K2A, ADP-Glo luminescence, 1 h; at 76.9 µM, active compounds read low.
Excerpt: The phosphatidylinositol 4-phosphate (PI4P) is emerging as a key regulator of lipid transfer in ER-membrane contact sites. The four different phosphatidylinositol 4-kinase (PI4K) enzymes generate PI4P in different membrane compartments supporting distinct cellular processes many of which are crucial for the maintenance of cellular integrity but also hijacked by intracellular pathogens. The goal of this screening project is to search for small molecular inhibitors of PI4K2A based on a high throughput screening strategy.The ADP-Glo assay was used as a starting point to develop a miniaturized version for HTS applications. To implement the HTS screen, the PI4K ADP-Glotrade mark Kinase assay (Promega, V9102) was miniaturized for the 1536-well format used at NCGC.
For the robotic screening, the ADP-Glo assay using the ADP-Glotrade mark Kinase Assay kit from Promega was miniaturized and optimized on 1536-well white solid bottom plates (Greiner Bio-one). The substrate, 1.2 mM PI, prepared in the assay buffer (40mM Tris pH7.5, 20mM MgCl2, 1mM EGTA, 0.4% Triton X-100, 0.5mM DTT, 0.5mg/ml BSA) and PI4K2A enzyme, diluted also in the assay buffer to 4ug/mL, were dispensed onto the plates in equal volumes (1microl/well), pinned with 23 nL/well tested compounds or control followed by dispensation of 1microl/well 300microM ATP. The plates were incubated for one hour. Then, 2 µL/well of ADP-Glo reagent was added and incubated for 40 minutes. Next, 4microL/well of Kinase Detection Buffer was added to the plates and incubated for additional 40 minutes. All incubation steps were performed at ambient temperature. The resulting luminescence signal was measured on Viewlux plate reader (PerkinElmer). Adenosine, a partial non-specific inhibitor, was used as a positive control at 100microM final concentration to assess the assay's quality and plate-to-plate reproducibility. We also used "no enzyme" control to gauge the assay's maximal potential inhibition (IC100).
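Further: -100% = wells without enzyme as full effect.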

Structure (SMILES)	activity change, negative = inhibition
CC(=O)Nc1ccc([As](=O)(O)O)cc1	inactive: -1.36%
CCCC1OP(N)(=O)OCC1CC (stereo not given)	inactive: -3.18%
CN(C)P(=O)(N(C)C)n1c(Nc2ccccc2)nnc1-c1ccccc1	inactive: -0.617%
O=P(Nc1nc2ccc(Cl)cc2s1)(c1ccccc1)c1ccccc1	inactive: 0.363%
CCN(N=Nc1nonc1N)c1nonc1N	inactive: -3.35%
Nc1cccc2ccc([As](=O)(O)O)cc12	inactive: -25.3%
O=C(Nc1cc([As](=O)(O)O)ccc1O)c1ccccc1	inactive: -1.03%
O=P1(N(CCCl)CCCl)OCCCS1 (stereo not given)	inactive: -4.49%
O=[N+]([O-])c1cccc(NC2=NCC(CBr)S2)c1 (stereo not given)	inactive: 0.141%
COC(=O)C1(C)COP(=O)(Nc2ccccc2)OC1 (stereo not given)	inactive: 0.0759%
O=C(O)CNc1ccc([As](=O)(O)O)cc1	inactive: 3.81%
CC(C)(C)C(=O)NC(Sc1ccncn1)C(Cl)(Cl)Cl (stereo not given)	inactive: -1.06%
O=[N+]([O-])c1ncn(CCn2ncnc2[N+](=O)[O-])n1	inactive: -4.03%
CC(=O)N1C2C3N(C(C)=O)C1C1N(C(C)=O)C(C(N1C(C)=O)N3C(C)=O)N2C(C)=O	inactive: -0.892%
O=[N+]([O-])c1cccc2n[nH]nc12	inactive: 5.5%
Cc1ccc(NP(=O)(Oc2ccccc2)Oc2ccccc2)nc1	inactive: -0.456%
CCc1nc2c(n1)c1c(non1O)c1c2no[n+]1[O-]	inactive: -20.9%
COc1ccc(C2=NCC(CBr)S2)cc1 (stereo not given)	inactive: -2.31%
CC(C)=N/N=C(\N)N[N+](=O)[O-]	inactive: -3.81%
CC(C)c1nc(Nc2ccccc2)n(P(=O)(N(C)C)N(C)C)n1	inactive: 3.99%
CN(C)C(=O)OCCc1n(C)cc[n+]1C	inactive: 1.08%
c1cc(-c2nn[nH]n2)ccc1-c1nn[nH]n1	inactive: 5.14%
CC1CCN(C(=O)Oc2c(Cl)cc(Cl)c3cccnc23)CC1	inactive: -0.119%

Structure (SMILES)	activity change, negative = inhibition
Nc1ccc([As](=O)(O)c2ccc(N)cc2)cc1	inactive: -2.72%
CCN(/C(=N/P(=O)(N1CCOCC1)N1CCOCC1)N1CCOCC1)c1ccc(OC)cc1	inactive: -0.442%
O=C(COc1ccccc1)OC1CN2CCC1CC2 (stereo not given)	inactive: -13.4%
O=C(Nc1ccncc1[N+](=O)[O-])c1ccc([N+](=O)[O-])cc1[N+](=O)[O-]	inactive: 3.57%
O=C(O)C(=O)c1ccc(N(CCCl)CCCl)cc1	inactive: -8.65%
COP1(=S)c2c(C)nn(CCC#N)c2N=C(c2ccc(F)cc2)N1C (stereo not given)	inactive: 3.11%
COC(=O)C1(C)COP(=O)(N2CCCC2)OC1 (stereo not given)	inactive: 0.54%
CCC(C)N(CC(C)C)C(=S)SC(NC(C)=O)C(Cl)(Cl)Cl (stereo not given)	inactive: 4.54%
CCOC(=O)c1ccc(NC(=O)C(C)(CCl)SC)cc1 (stereo not given)	inactive: -1.18%
O=C(OC1CN2CCC1CC2)c1cccc([N+](=O)[O-])c1 (stereo not given)	inactive: -1.89%
CSc1ccc(Nc2c([N+](=O)[O-])cc([N+](=O)[O-])cc2[N+](=O)[O-])cc1	inactive: -4.7%
CCCCOc1ccc(C(=O)NCC2(N3CCCCC3)CCCCC2)cc1OC	inactive: -1.62%
Cc1cc(SC(NC(=O)c2ccccc2)C(Cl)(Cl)Cl)nc(C(C)C)n1 (stereo not given)	inactive: 1%
COP(=O)(OC)N1CC1c1ccccc1 (stereo not given)	inactive: 1.13%
CC1CCNP(=O)(N(CCCl)CCCl)O1 (stereo not given)	inactive: -2.77%
O=C(O)C(O)c1ccc(N(CCCl)CCCl)cc1 (stereo not given)	inactive: -8.65%
CCOC(=O)Nc1ccc([As](=O)(O)O)c(O)c1	inactive: -2.53%
O=[N+]([O-])c1ccc(Nc2ccc(Oc3ccc([N+](=O)[O-])cc3[N+](=O)[O-])cc2)c([N+](=O)[O-])c1	inactive: 2.49%
Cc1cc(SC(NC=O)C(Cl)(Cl)Cl)ncn1 (stereo not given)	inactive: 6.29%
O=P(Nc1ccccn1)(c1cccc2ccccc12)c1cccc2ccccc12	inactive: 3.79%
CCOC(=O)Nc1cccc([As](=O)(O)O)c1	inactive: 2.98%
Cc1ccc2nc3c(c(C)c2c1)CC(C(Cl)Cl)S3 (stereo not given)	inactive: -1.97%
Cc1ccc(OP(=O)(Nc2ccc([N+](=O)[O-])cn2)Oc2ccc(C)cc2)cc1	inactive: -0.242%

Structure (SMILES)	activity change, negative = inhibition
[N-]=[N+]=NC1CCCCC1NC(=O)c1cc([N+](=O)[O-])cc([N+](=O)[O-])c1 (stereo not given)	inactive: -2.1%
O=[As](O)(c1ccc(O)cc1)c1ccccc1O	inactive: -2.03%
C[As](=O)(O)c1cccc(C(=O)O)c1	inactive: -2.75%
COc1cc(C(=O)NCC2(N3CCOCC3)CCCCC2)ccc1OCC(C)C	inactive: 4.66%
O=[N+]([O-])c1ccc(-c2cc([N+](=O)[O-])c(O)c([N+](=O)[O-])c2)cc1	inactive: -0.336%
CCN(CC)C(=S)SC(NC=O)C(Cl)(Cl)Cl (stereo not given)	inactive: -2.06%
O=C(OC1CN2CCC1CC2)c1cccc2[nH]cnc12 (stereo not given)	inactive: -3.47%
CC(C)NC(=O)NP(=O)(Oc1ccccc1)Oc1ccccc1	inactive: 0.548%
O=[N+]([O-])c1cc([N+](=O)[O-])c(-c2ccn[nH]2)s1	inactive: -8.05%
CC(C)c1ccc(OP(=O)(Nc2ccccn2)Oc2ccccc2F)cc1 (stereo not given)	inactive: -2.46%
COC(=O)C1(C)COP(=O)(N2CCCCCC2)OC1 (stereo not given)	inactive: 3.42%
ClCCSc1nnc(-c2cccnc2)o1	inactive: 2.16%
COc1ccc2nc(NP(=O)(c3ccccc3)c3ccccc3)sc2c1	inactive: 1.14%
COc1cc(I)ccc1[As](=O)(O)O	inactive: 3.34%
O=P1(N(CCCl)CCCl)Nc2ccccc2N1	inactive: -8.19%
O=P1(N(CCCl)CCCl)OCCCN1CCCl (stereo not given)	inactive: 2.42%
O=C(OC1CN2CCC1CC2)C12CC3CC(CC(C3)C1)C2 (stereo not given)	inactive: -7.04%
Cc1cc(=O)[nH]c(N[N+](=O)[O-])n1	inactive: 2.48%
Cc1c2c(nc3ccccc13)SC(C(Cl)Cl)C2 (stereo not given)	inactive: -1.28%
COc1ccc(N/C(=N/P(=O)(N2CCOCC2)N2CCOCC2)N2CCOCC2)cc1	inactive: -7.71%
O=[N+]([O-])c1cc(Oc2ccc([N+](=O)[O-])cc2C(F)(F)F)cc([N+](=O)[O-])c1	inactive: -0.0805%
O=[As](O)(c1cccc(O)c1)c1cccc(O)c1	inactive: -0.713%
Cc1cccc(OCC(=O)OC2CN3CCC2CC3)c1 (stereo not given)	inactive: 1.93%

Structure (SMILES)	activity change, negative = inhibition
COc1cc(C(=O)NCC2(N3CCOCC3)CCCCC2)cc(Cl)c1OC(C)C	inactive: 0.354%
O=[As](O)(O)c1cccnc1	inactive: 9.73%
CS(=O)(=O)c1ccc(Cl)c(NC(=O)COC(=O)C(O)(c2ccccc2)c2ccccc2)c1	inactive: -0.555%
O=C(OC1CN2CCC1CC2)c1ccc(Cl)cc1 (stereo not given)	inactive: -9.98%
CN(C(=O)Cc1ccc(Cl)c(Cl)c1)[C@@H]1CC[C@]2(CCCO2)C[C@H]1N1CCCC1	inactive: 0.493%
COc1cc(C2NCCC3(OCCO3)C2(C)C)cc(OC)c1OC (stereo not given)	inactive: -4.03%
CCOP(=O)(Nc1cccc2ccccc12)OCC	inactive: -4.03%
CCCOP(=S)(Nc1nc(N)cc(=O)[nH]1)OCCC	inactive: -1.6%
Cc1ccc(NCCc2c([N+](=O)[O-])cc([N+](=O)[O-])cc2[N+](=O)[O-])cc1	inactive: -22.2%
Nc1cccc2c([As](=O)(O)O)cccc12	inactive: -3.3%
O=C(O)COc1ccc([As](=O)(O)O)cc1[N+](=O)[O-]	inactive: 0.554%
Nc1ccccc1[As](=O)(O)c1ccccc1	inactive: -4.64%
CCOP1(=S)c2c(C)nn(CCC#N)c2N=C(c2ccccc2F)N1C (stereo not given)	inactive: -1.83%
O=P(Nc1nccs1)(c1ccccc1)c1nc2ccccc2s1 (stereo not given)	inactive: -26.8%
O=P(Nc1nccs1)(Oc1ccccc1)Oc1ccccc1	inactive: 1.21%
O=[N+]([O-])c1ccc2c(c1)nnn2O	inactive: -2.93%
CN(C(=O)Cc1ccc(Cl)c(Cl)c1)[C@H]1CC[C@@]2(CCCO2)C[C@@H]1N1CCCC1	inactive: 3.07% and inactive: -1.8%
N#CCCN(C(=O)COC(=O)C(O)(c1ccccc1)c1ccccc1)c1ccc(F)cc1	inactive: -3.19%
CCOP1(=S)c2c(C)nn(CCC#N)c2N=C(c2ccc(F)cc2)N1C (stereo not given)	inactive: 1.37%
CN(C(=O)Cc1ccccc1)[C@@H]1CC[C@]2(CCCO2)C[C@H]1N1CCCC1	inactive: -1.54% and inactive: 2.99%
NC(=O)Nc1ccc([As](=O)(O)O)cc1	inactive: 4.18% and inactive: -1.59%
O=C(/C=C/c1ccccc1)OC1CN2CCC1CC2 (stereo not given)	inactive: 0.732%
CCCC1OP(=O)(Nc2ccccc2)OCC1CC (stereo not given)	inactive: 2.62%

Structure (SMILES)	activity change, negative = inhibition
CN(C)C1(CNC(=O)c2ccc(S(C)(=O)=O)cc2)CCCCC1	inactive: -3.37%
Cc1nn(-c2ccccc2)c2c1P(=O)(N1CCOCC1)N(C)C(c1ccccc1)=N2 (stereo not given)	inactive: 2.09%
Cc1ccc(C(=O)OC2CN3CCC2CC3)cc1 (stereo not given)	inactive: 3.56%
CC1CCC(C(C)C)C(OP(=O)(Nc2ccccn2)c2ccccc2)C1 (stereo not given)	inactive: -14%
NS(=O)(=O)c1cccc(NC(=O)COC(=O)C(O)(c2ccccc2)c2ccccc2)c1	inactive: -1.46%
O=P1(Nc2ccc(Br)cn2)COc2ccccc2OC1	inactive: 0.953%
Cc1ccc(OCC(=O)OC2CN3CCC2CC3)cc1 (stereo not given)	inactive: 1.4%
O=[As](O)(c1cccs1)c1cccs1	inactive: -3.26%
Nc1cccc([As](=O)(O)c2ccccc2)c1	inactive: 2.29%
O=P1(Nc2ncccn2)COc2ccccc2OC1	inactive: -2.63%
Cc1ccc(S(=O)(=O)N(CCCN)CCCc2c(C)nc(N)[nH]c2=O)cc1	inactive: -7.07%
Clc1n[nH]nc1-c1nn[nH][15n]1	inactive: -4.6%
O=P1(N(CCCl)CCCl)NCCC(C(F)(F)F)O1 (stereo not given)	inactive: -1.41%
CC(C)(C)C(=O)NC(Sc1ncccn1)C(Cl)(Cl)Cl (stereo not given)	inactive: -2.89%
CN(CCCl)Cc1cc(Cl)c(NC2=NCCN2)c(Cl)c1	inactive: 4.06% and inactive: -7.22%
CCOP(=O)(Nc1ccc(C)cn1)OCC	inactive: -2.23%
CCC1=CC2Cc3nc4ccc(Cl)cc4c(N)c3C(C1)C2 (stereo not given)	inactive: 3.11%
O=P1(Nc2ccccn2)COc2ccccc2OC1	inactive: 7.13%
CCOP(=O)(NC(=NC(C)c1ccccc1)NC(C)c1ccccc1)OCC (stereo not given)	inactive: 5.73%
CC1(CBr)Cn2c(nc3ccccc3c2=O)S1 (stereo not given)	inactive: -8.99%
CN(C(=O)Cc1ccc(Cl)c(Cl)c1)[C@@H]1CCCC[C@H]1N1CCCC1	inactive: 0.562%
CC(C)/C=N\N=C(\N)N[N+](=O)[O-]	inactive: 2.59%
COc1ccccc1CNC(=O)COC(=O)C(O)(c1ccccc1)c1ccccc1	inactive: -4.4%
